Measurements taken from ChEMBL document CHEMBL5214967, “Natural Product-Inspired Targeted Protein Degraders: Advances and Perspectives” (J Med Chem, 2022).

Test: Binding affinity to Mycobacterium smegmatis ClpC assessed as dissociation constant by MicroCal PEAQ-ITC instrument analysis

CC(=O)N[C@@H](CCCNC(=N)NP(=O)(O)O)C(=O)NCCOCCOCCC(=O)NCCOCCOCCC(=O)NCCOCCOCCC(=O)N[C@@H](CCCCNC(=O)CCCC[C@@H]1SC[C@@H]2NC(=O)N[C@@H]21)C(N)=O
Kd: 2800 nM
